Experiments:
Test in all cases: cell-based or functional assay
[1] = target: human TSH receptor (TSHR), wild type, expressed in CHO cells (human) (UniProt P16473)
[2] = target: human TSH receptor (full length, wild type) expressed in CHO cells (human) (UniProt P16473)
[3] = target: human TSH receptor (wild type), expressed on transfected CHO cells (human) (UniProt P16473)
[4] = target: human TSH receptor (full length, wild type) expressed on CHO cells (human) (UniProt P16473)

- Cyclic AMP concentration in hypotonic medium; 3 ng/mL pTSH alone [1]: 65.2 pmol/mL
- Cyclic AMP concentration in isotonic medium; 3 ng/mL pTSH alone [1]: 42.4 pmol/mL
- Cyclic AMP production concentration at 0.01 ng/mL pTSH [2]: 1.4 pmol/mL
- Cyclic AMP production concentration at 0.03 ng/mL pTSH [2]: 2.4 pmol/mL
- Cyclic AMP production concentration at 0.1 ng/mL pTSH [2]: 7.2 pmol/mL
- Cyclic AMP production concentration at 0.3 ng/mL pTSH [2]: 18.5 pmol/mL
- Cyclic AMP production concentration at 1 ng/mL pTSH [2]: 51.7 pmol/mL
- Cyclic AMP production concentration at 3 ng/mL pTSH [2]: 55.4 pmol/mL
- Cyclic AMP concentration; pTSH 3 ng/mL [3]: 64.2 pmol/mL
- Cyclic AMP concentration in hypotonic medium; pTSH 3 ng/mL alone [4]: 48.1 pmol/mL
- Cyclic AMP concentration in isotonic medium; pTSH 3 ng/mL alone [4]: 41.1 pmol/mL
- Cyclic AMP concentration; 1 ng/mL pTSH alone [4]: 61.7 pmol/mL
Substance: porcine TSH (from UniProt P01219 25-120; P01224 21-132) (ligand)

— patent US20110300138A1 (published 2011)
